Amino acid sequences for entries named in this document (tags omitted). A change or cut given only in a name is not applied to a line headed by its entry.
UniProt P41146: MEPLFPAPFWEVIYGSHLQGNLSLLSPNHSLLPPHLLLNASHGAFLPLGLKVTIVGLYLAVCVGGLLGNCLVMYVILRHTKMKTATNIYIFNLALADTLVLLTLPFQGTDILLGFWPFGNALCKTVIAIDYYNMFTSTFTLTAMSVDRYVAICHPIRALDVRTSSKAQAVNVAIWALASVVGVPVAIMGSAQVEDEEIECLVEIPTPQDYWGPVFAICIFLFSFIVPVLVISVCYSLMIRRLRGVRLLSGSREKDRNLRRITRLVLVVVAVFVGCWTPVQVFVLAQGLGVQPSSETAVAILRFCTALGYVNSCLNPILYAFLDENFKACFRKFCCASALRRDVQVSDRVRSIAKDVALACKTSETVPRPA
UniProt P35372: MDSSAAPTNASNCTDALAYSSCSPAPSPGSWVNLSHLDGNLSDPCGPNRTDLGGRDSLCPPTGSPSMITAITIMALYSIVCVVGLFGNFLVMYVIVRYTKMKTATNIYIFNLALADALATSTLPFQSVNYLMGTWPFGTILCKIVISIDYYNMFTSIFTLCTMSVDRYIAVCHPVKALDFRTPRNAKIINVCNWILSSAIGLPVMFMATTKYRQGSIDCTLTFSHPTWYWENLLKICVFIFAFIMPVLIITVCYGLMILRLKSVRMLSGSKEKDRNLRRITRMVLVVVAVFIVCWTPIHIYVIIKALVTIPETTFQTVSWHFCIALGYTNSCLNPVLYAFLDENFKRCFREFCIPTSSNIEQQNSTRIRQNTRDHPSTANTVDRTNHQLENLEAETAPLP

According to patent publication US7332519B2, “Spirocyclic cyclohexane compounds” (dated 2008):

Key:
ORL1 receptor = ORL1 receptor (Homo sapiens, UniProt P41146); test: Measurement of ORL1 binding, 3H-nociceptin/orphanin FQ receptor binding assay with membranes of recombinant CHO-ORL1 cells; details: 0.5 nM 3H-nociceptin/orphanin FQ, test concentration not given
human μ-opiate receptor = human μ-opiate receptor (Homo sapiens, UniProt P35372); test: Measurement of the μ-bond, [3H]-Naloxon displacement, membrane preparation of CHO-K1 cells expressing the receptor; details: for ORμ_Nal % inhibition: test substance 1 μmole/liter
male NMRI-mice = test: Mouse jumping test (naloxone-precipitated withdrawal, physical dependence capacity); details: 7 i.p. injections over two days, 30 mg/kg naloxone i.p., jumps 0-10 min
mice = test: Muscle relaxation and anesthesia in mice; details: at higher doses

Row | Compound | ORL1 % inhibition (ORL1 receptor) [%] | ORμ_Nal % inhibition (human μ-opiate receptor) [%] | Ki (human μ-opiate receptor; read-out: ORμ_Nal Ki, Cheng-Prusoff conversion) [nM] | jumping (withdrawal after naloxone) (male NMRI-mice) | muscle relaxation and anesthesia (mice)
1 | 1,1-[3-dimethylamino-3-(2-thienyl)pentamethylene]-1,3,4,9-tetrahydro-pyrano[3,4-b]indole Dimethanesulfonate | 37 | 47 |  |  | 
2 | 1,1-[3-dimethylamino-3-(pyridin-2-yl)pentamethylene]-3,4-dihydro-1H-2-oxa-9-thiafluorene Citrate | 49 |  | 140 |  | 
3 | CN(C)C1(c2cccs2)CCC2(CC1)OCCc1c2[nH]c2ccccc12 (centres unmarked) |  |  |  | completely suppressed | induces muscle relaxation and anesthesia
4 | 1,1-[3-dimethylamino-3-(2-thienyl)pentamethylene]-1,3,4,9-tetrahydro-pyrano[3,4-b]-6-fluoroindole Citrate | 41 | 53 |  |  | 
